In PubChem BioAssay AID743247 (Broad Institute, 2014):
The entries are a selection whose mix differs from that of the whole data set. Activity calls are given as the source filed them.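 How the source made its calls: active means mean inhibition across replicates of 30% or more, regardless of how many single replicates reach that level; inconclusive means mean under 30% yet at least half of replicates reach 30%; inactive means the rest.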

Experiment: inhibitors of fibronectin matrix deposition, primary screen, AH1F cells, Alexa488-fibronectin fluorescence, plate reader (AID 743247);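 further: positive control wells lacked labelled fibronectin entirely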
Details: AH1F fibroblasts, overnight, at 12.6 µM, hits give high values
Method in brief: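 Schedule: 1 h cell adhesion before compound, then overnight fibronectin incubation; test system: AH1F fibroblast monolayer depositing Alexa488-labelled fibronectin into matrix; quantity: 10000 AH1F cells per well; probe or stimulus: fluorescent fibronectin at 24 nM final; signal: fluorescence, ex 485 nm, em 525 nm; evaluation: percent inhibition as loss of matrix-bound fibronectin fluorescence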

Row | SMILES | inhibition
1 | COc1ccc(NC2CCN(CCc3ccccc3)CC2)c(OC)c1 | inactive: -5.46%
2 | CCOC(=O)N1CCC(Nc2ccc(F)cc2)CC1 | inactive: -5.37%
3 | O=C(NCC1(N2CCCCC2)CCCCC1)c1ccc(F)cc1 | inactive: -0.71%
4 | CCCCn1nnnc1C(c1cc2ccccc2o1)N1CCC(n2c(=O)[nH]c3ccccc32)CC1 (stereo unspecified) | inactive: 12.3%
5 | O=P1(N(CCCl)CCCl)SCCCS1 | inactive: -2.91%
6 | CCCCOc1ccc(C(=O)NCC2(N3CCOCC3)CCCCC2)cc1 | inactive: 8.38%
7 | CCOc1ccc(C)cc1CN(CCCl)CCCl | inactive: -7.84%
8 | CC(C)(C)n1nnnc1C(c1ccccc1)N1CCC(n2c(=O)[nH]c3ccccc32)CC1 (stereo unspecified) | inactive: 7.15%
9 | COc1cc(C(=O)NCC2(N(C)C)CCCCC2)ccc1OC(F)F | inactive: 0.463%
10 | CCOC(=O)N1CCC(Nc2cccc(C)c2)CC1 | inactive: -6.95%
11 | O=c1[nH]c2ccccc2n1C1CCN(C(c2ccccc2)c2nnnn2C2CCCCC2)CC1 (stereo unspecified) | inactive: 0.43%
12 | Cc1cccc(NC2(C#N)CCN(Cc3ccccc3)CC2)c1 | inactive: 4.56%
13 | CSc1ccccc1C(=O)NCC1(N2CCCCC2)CCCCC1 | inactive: -7.67%
14 | CCCCn1nnnc1C(c1cccs1)N1CCC(n2c(=O)[nH]c3ccccc32)CC1 (stereo unspecified) | inactive: 6.77%
15 | CCCCn1nnnc1C(CC)N1CCC(n2c(=O)[nH]c3ccccc32)CC1 (stereo unspecified) | inactive: 2.4%
16 | O=C(NCC1(N2CCCCC2)CCCCC1)c1ccc(=O)[nH]c1 | inactive: -17.9%
17 | CCC(c1nnnn1C1CCCC1)N1CCC(n2c(=O)[nH]c3ccccc32)CC1 (stereo unspecified) | inactive: -5.2%
18 | COc1ccc(C(=O)NCC2(N3CCCCC3)CCCCC2)c(OC)c1OC | inactive: -27.7%
19 | CC(C)(C)OC(=O)N1CCC(N(C(=O)c2ccccc2)c2ccc(F)cc2)CC1 | inactive: -0.795%
20 | COc1ccc(C(=O)NCC2(N3CCCCC3)CCCCC2)cc1 | inactive: -1.73%
21 | CCCCn1nnnc1C(c1ccc(OC)cc1)N1CCC(n2c(=O)[nH]c3ccccc32)CC1 (stereo unspecified) | inactive: -2.45%
22 | CCOC(=O)N1CCC(Nc2ccc(OC)cc2)CC1 | inactive: 13.5%

Row | SMILES | inhibition
23 | COc1ccc(Cl)cc1C(=O)NCC1(N2CCOCC2)CCCCC1 | inactive: -4.61%
24 | O=C(NCC1(N2CCCCC2)CCCCC1)c1ccc(Cl)s1 | inactive: -12.3%
25 | N#CC1(Nc2ccccc2)CCN(Cc2ccccc2)CC1 | inactive: -2.94%
26 | Cc1cc(C)cc(N(C(=O)c2ccccc2)C2CCN(C(=O)OC(C)(C)C)CC2)c1 | inactive: -16.5%
27 | O=c1[nH]c2ccccc2n1C1CCN(C(c2ccccc2OC(F)(F)F)c2nnnn2C2CCCCC2)CC1 (stereo unspecified) | inactive: -4.01%
28 | O=C(NCC1(N2CCCCC2)CCCCC1)c1ccc(Cl)nc1 | inactive: -14.2%
29 | CCCCn1nnnc1C(c1ccnc2ccccc12)N1CCC(n2c(=O)[nH]c3ccccc32)CC1 (stereo unspecified) | inactive: -5.98%
30 | O=C(NCC1(N2CCOCC2)CCCCC1)c1cc(F)c(F)cc1Cl | inactive: 3.71%
31 | CCC(c1nnnn1C(C)(C)C)N1CCC(n2c(=O)[nH]c3ccccc32)CC1 (stereo unspecified) | inactive: 6.31%
32 | COc1cc(OC)c(C(=O)NCC2(N(C)C)CCCCC2)cc1OC | inactive: -14.8%
33 | CN(C)c1cccc(C(=O)NCC2(N3CCCCC3)CCCCC2)c1 | inactive: -7.12%
34 | COc1ccc(CN(CCCl)CCCl)cc1Cl | inactive: -1.6%
35 | CC(C)c1ccc(NC2CCN(C(=O)OC(C)(C)C)CC2)cc1 | inactive: -1.44%
36 | CCCOc1ccc(C(=O)NCC2(N(C)C)CCCCC2)cc1OC | inactive: -9.31%
37 | COc1ccc(C(c2nnnn2C2CCCC2)N2CCC(n3c(=O)[nH]c4ccccc43)CC2)cc1 (stereo unspecified) | inactive: -7.18%
38 | O=C(NCC1(N2CCCCC2)CCCCC1)c1cncc(Br)c1 | inactive: -3.56%
39 | O=C(NCC1(N2CCCCC2)CCCCC1)c1cccc([N+](=O)[O-])c1 | inactive: -0.398%
40 | CSc1ccc(C(=O)NCC2(N3CCOCC3)CCCCC2)cc1 | inactive: 0.171%
41 | O=c1[nH]c2ccccc2n1C1CCN(C(c2ccccc2OC(F)(F)F)c2nnnn2C2CCCC2)CC1 (stereo unspecified) | inactive: -2.25%
42 | CCN1CCC(Nc2ccc(Cl)cc2)CC1 | inactive: 6.79%
43 | O=C(NCC1(N2CCCCC2)CCCCC1)c1ccc(OC(F)F)cc1 | inactive: 12.8%
44 | CN1CCN(CCOC(=O)C(O)(c2ccccc2)c2ccccc2)CC1 | inactive: 2.38%

Row | SMILES | inhibition
45 | COc1ccc(NC2CCN(C(=O)OC(C)(C)C)CC2)cc1 | inactive: 0.976%
46 | CC(C)c1ccc(C(=O)NCC2(N3CCOCC3)CCCCC2)cc1 | inactive: -7.46%
47 | COc1cc(C(=O)NCC2(N3CCCCC3)CCCCC2)ccc1OC(F)F | inactive: 3.05%
48 | O=C(NCC1(N2CCCCC2)CCCCC1)c1cccc(C(F)(F)F)c1 | inactive: -1.86%
49 | CC(C)(C)OC(=O)N1CCC(N(C(=O)c2ccccc2)c2ccc(Cl)cc2)CC1 | inactive: -7.13%
50 | N#Cc1ccc(C(=O)NCC2(N3CCCCC3)CCCCC2)cc1 | inactive: -4.17%
51 | O=c1[nH]c2ccccc2n1C1CCN(C(c2ccccc2)c2nnnn2C2CCCC2)CC1 (stereo unspecified) | inactive: 3.74%
52 | CCCN1CCC(Nc2cc(OC)cc(OC)c2)CC1 | inactive: 2.37%
53 | Cc1cc(N(CCCl)CCCl)ccc1C=O | inactive: -6.18%
54 | c1ccc(CN2CCC(Nc3ccccc3)CC2)cc1 | inactive: 0.946%
55 | C/C(N)=N\P(=O)(Oc1ccccc1)Oc1ccccc1 | inactive: 1.8%
56 | CN(C)C1(CNC(=O)c2cccc(C#N)c2)CCCCC1 | inactive: -2.16%
57 | O=c1[nH]c2ccccc2n1C1CCN(C(c2ccnc3ccccc23)c2nnnn2C2CCCC2)CC1 (stereo unspecified) | inactive: -10%
58 | O=c1[nH]c2ccccc2n1C1CCN(C(c2cccs2)c2nnnn2C2CCCCC2)CC1 (stereo unspecified) | inactive: -57.1%
59 | COc1cc(C(=O)NCC2(N3CCOCC3)CCCCC2)cc(OC)c1C | inactive: 6.16%
60 | CCCCn1nnnc1C(c1ccccc1)N1CCC(n2c(=O)[nH]c3ccccc32)CC1 (stereo unspecified) | inactive: -3.17%
61 | CCCCn1nnnc1C(c1cccc(OC)c1OC)N1CCC(n2c(=O)[nH]c3ccccc32)CC1 (stereo unspecified) | inactive: 11.6%
62 | O=c1[nH]c2ccccc2n1C1CCN(C(c2cccs2)c2nnnn2C2CCCC2)CC1 (stereo unspecified) | inactive: -2.94%
63 | O=C(OC1CN2CCC1CC2)C1c2ccccc2C=Cc2ccccc21 (stereo unspecified) | inactive: -3.28%
64 | COc1cccc(C(c2nnnn2C(C)(C)C)N2CCC(n3c(=O)[nH]c4ccccc43)CC2)c1OC (stereo unspecified) | inactive: 0.997%
65 | CCOC(=O)N1CCC(Nc2ccc(C)cc2)CC1 | inactive: -4%
66 | CCCOc1ccc(C(=O)NCC2(N(C)C)CCCCC2)cc1 | inactive: 0.839%

Row | SMILES | inhibition
67 | O=C(O)C1(Nc2ccccc2)CCN(Cc2ccccc2)CC1 | inactive: 8.94%
68 | NN(c1ccccc1)C1CCN(CCc2ccccc2)CC1 | inactive: -7.52%
69 | CC(C)(C)OC(=O)N1CCC(Nc2ccccc2)CC1 | inactive: 5.37%
70 | CN1CCC(Nc2ccc(F)c(Cl)c2)CC1 | inactive: -1.66%
71 | CCOc1ncccc1C(=O)NCC1(N2CCOCC2)CCCCC1 | inactive: -7.93%
72 | CN1CCC(Nc2ccc(Cl)cc2)CC1 | inactive: 2.66%
73 | COc1cc(OC)cc(C(=O)NCC2(N3CCOCC3)CCCCC2)c1 | inactive: -0.873%
74 | COc1cccc(C(c2nnnn2C2CCCC2)N2CCC(n3c(=O)[nH]c4ccccc43)CC2)c1OC (stereo unspecified) | inactive: -2.79%
75 | COc1cccc(C(=O)N(c2cc(C)cc(C)c2)C2CCN(C(=O)OC(C)(C)C)CC2)c1 | inactive: -4.48%
76 | Cc1ccc(NC2(C#N)CCN(Cc3ccccc3)CC2)cc1 | inactive: -5.86%
77 | Cc1ccc(C(=O)NCC2(N3CCCCC3)CCCCC2)o1 | inactive: 0.469%
78 | COc1cc(OC)cc(C(=O)NCC2(N3CCCCC3)CCCCC2)c1 | inactive: 6.38%
79 | CCC(c1nnnn1C1CCCCC1)N1CCC(n2c(=O)[nH]c3ccccc32)CC1 (stereo unspecified) | inactive: 0.333%
80 | CC(=O)N(c1ccccc1)C1CCNCC1 | inactive: 6.29%
81 | COc1cccc(C(c2nnnn2C2CCCCC2)N2CCC(n3c(=O)[nH]c4ccccc43)CC2)c1OC (stereo unspecified) | inactive: -0.405%
82 | Cn1c(=O)[nH]cc(N(CCCl)CCCl)c1=O | inactive: 5.13%
83 | O=C(NCC1(N2CCCCC2)CCCCC1)c1ccco1 | inactive: -5.29%
84 | COc1ccc(C(c2nnnn2C2CCCCC2)N2CCC(n3c(=O)[nH]c4ccccc43)CC2)cc1 (stereo unspecified) | inactive: -1.18%
85 | CCN1CCC(Nc2cccc(F)c2)CC1 | inactive: 3.32%
86 | Cc1ccccc1NC1(C#N)CCN(Cc2ccccc2)CC1 | inactive: -3.44%
